Measurements reported in ChEMBL document CHEMBL5096238 (J Med Chem, 2022).

Sequences of proteins named here, by UniProt entry; tags and fusion partners are left off. A change or cut given only in a name is not applied to a line headed by its entry.
UniProt P31751: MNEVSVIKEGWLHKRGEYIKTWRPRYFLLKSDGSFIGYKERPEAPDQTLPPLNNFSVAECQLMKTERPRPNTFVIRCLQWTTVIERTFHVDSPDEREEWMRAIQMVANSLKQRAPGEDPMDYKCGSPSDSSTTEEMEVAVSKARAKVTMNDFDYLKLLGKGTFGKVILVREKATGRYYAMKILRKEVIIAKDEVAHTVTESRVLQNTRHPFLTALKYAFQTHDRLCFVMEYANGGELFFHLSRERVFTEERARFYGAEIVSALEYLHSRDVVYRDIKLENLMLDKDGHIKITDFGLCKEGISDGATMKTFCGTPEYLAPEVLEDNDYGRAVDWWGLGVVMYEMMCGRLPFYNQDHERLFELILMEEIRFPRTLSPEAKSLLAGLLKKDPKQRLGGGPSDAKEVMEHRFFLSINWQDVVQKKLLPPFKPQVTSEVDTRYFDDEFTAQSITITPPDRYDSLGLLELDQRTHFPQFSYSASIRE
UniProt Q9Y243: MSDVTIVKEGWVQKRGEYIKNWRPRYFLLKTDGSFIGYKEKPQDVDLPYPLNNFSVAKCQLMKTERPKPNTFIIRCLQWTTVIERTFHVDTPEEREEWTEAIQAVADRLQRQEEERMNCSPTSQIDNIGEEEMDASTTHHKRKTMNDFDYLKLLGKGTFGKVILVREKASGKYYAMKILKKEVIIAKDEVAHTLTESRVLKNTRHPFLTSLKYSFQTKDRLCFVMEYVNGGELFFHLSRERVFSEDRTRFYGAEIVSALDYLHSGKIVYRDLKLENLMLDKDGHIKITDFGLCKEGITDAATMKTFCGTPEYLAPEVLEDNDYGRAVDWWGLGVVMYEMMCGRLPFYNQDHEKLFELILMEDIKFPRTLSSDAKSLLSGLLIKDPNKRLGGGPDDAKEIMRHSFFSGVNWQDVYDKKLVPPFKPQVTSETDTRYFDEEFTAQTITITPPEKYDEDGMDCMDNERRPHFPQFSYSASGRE
UniProt P31749: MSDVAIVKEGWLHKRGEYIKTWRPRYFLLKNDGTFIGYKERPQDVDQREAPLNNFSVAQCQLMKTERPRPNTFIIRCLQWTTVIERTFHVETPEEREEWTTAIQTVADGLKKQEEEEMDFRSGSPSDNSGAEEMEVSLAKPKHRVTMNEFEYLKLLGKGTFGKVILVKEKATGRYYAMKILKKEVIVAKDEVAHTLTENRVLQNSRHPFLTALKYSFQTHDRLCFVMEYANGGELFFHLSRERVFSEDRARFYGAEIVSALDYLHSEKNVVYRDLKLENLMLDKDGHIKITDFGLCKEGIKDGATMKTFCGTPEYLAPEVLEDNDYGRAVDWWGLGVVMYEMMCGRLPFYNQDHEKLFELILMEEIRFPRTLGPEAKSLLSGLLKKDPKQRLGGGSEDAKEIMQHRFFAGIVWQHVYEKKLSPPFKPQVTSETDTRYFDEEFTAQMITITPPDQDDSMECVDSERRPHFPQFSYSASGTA

How the values were obtained:
[1] = biological target: T1, Tyrosine-protein kinase receptor UFO (Homo sapiens) (UniProt P30530); conditions: dose 1000.0 nM
T1 sequence (whole entry): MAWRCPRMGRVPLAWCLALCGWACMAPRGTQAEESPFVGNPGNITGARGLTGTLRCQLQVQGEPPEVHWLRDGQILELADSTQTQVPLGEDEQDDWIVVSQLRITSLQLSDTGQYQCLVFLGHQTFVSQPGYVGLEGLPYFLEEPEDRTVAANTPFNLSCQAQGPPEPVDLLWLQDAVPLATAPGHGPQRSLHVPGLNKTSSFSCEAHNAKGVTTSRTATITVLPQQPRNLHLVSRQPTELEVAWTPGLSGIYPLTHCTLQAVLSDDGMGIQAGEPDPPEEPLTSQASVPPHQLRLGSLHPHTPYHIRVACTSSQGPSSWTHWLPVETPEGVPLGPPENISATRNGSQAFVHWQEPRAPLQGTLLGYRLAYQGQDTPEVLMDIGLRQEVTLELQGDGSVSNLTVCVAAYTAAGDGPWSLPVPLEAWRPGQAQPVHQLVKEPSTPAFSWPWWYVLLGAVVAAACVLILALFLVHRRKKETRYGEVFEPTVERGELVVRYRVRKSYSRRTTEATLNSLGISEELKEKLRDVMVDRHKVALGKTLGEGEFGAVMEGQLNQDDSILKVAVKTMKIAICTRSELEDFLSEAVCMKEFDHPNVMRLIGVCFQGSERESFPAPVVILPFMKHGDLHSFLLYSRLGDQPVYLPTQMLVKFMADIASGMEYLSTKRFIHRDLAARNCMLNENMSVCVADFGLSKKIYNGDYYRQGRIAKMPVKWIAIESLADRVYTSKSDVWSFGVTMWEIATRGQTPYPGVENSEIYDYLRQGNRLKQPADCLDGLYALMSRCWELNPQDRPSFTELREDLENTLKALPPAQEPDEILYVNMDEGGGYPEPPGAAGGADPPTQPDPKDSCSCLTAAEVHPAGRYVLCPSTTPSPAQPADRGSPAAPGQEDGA

[2] = biological target: Serine/threonine-protein kinase AKT (Homo sapiens) (UniProt P31751+Q9Y243+P31749); conditions: Hs746T, dose 1.1-30 nM, time 12.0 hrs

CNC(=O)c1ccc(-c2ccc(=O)n(CCc3ccc4ncc(-c5cnn(C6CCOCC6)c5)cc4c3)n2)cc1C(F)(F)F
inhibition [1]: 8%

O=C1NCCCCn2cc(cn2)-c2cnc3ccc(cc3c2)CCn2nc(ccc2=O)-c2ccc1c(C(F)(F)F)c2
inhibition [2]: Dde
inhibition [1]: 9%
